{
  "sequences": {"note": "Chains of the proteins cited; added tags and fusions are not shown. Residues count along the entry.", "UniProt P07339, 65-412": "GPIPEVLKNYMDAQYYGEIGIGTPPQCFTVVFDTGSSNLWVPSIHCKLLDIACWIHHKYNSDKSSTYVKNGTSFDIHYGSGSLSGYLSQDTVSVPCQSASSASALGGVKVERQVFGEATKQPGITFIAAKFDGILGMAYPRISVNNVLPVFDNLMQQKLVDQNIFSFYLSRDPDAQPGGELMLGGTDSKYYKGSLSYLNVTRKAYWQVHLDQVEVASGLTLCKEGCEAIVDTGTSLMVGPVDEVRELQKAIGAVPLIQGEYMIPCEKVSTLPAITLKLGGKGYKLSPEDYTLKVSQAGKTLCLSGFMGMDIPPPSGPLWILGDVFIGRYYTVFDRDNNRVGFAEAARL"},
  "source": "patent US12577702B2",
  "about": "“Oligonucleotide encoded chemical libraries, related systems, devices, and methods for detecting, analyzing, quantifying, and testing biologics/genetics” (Plexium, Inc., priority 2020, dated 2026)",
  "biological_target": "Cathepsin-D protease (Homo sapiens, UniProt P07339)",
  "assay": "Protease inhibition assay in picowells with compound photo-released from beads",
  "type": "biochemical",
  "conditions": "compound released from 10 μm TentaGel bead by UV (365 nm, 77 J/cm^2) to approximately 13 μM; incubated 30 min, 37° C.; λex=480 nm, λem=525 nm",
  "data": [
    {"compound": "CC(C)CC(=O)N[C@H](C(=O)N[C@H](C(=O)N[C@@H](CC(C)C)[C@@H](O)CC(=O)N[C@@H](C)C(=O)N[C@@H](CC(C)C)[C@@H](O)CC(=O)O)C(C)C)C(C)C", "note": "[positive control beads, Pepstatin-A]", "values": [
      {"measurement": "Cathepsin-D inhibition (fluorescence of Peptide Q-Fluor substrate in well)", "value": "strong inhibition"}
    ]}
  ]
}
